Assay results taken from patent publication US20240307373A1, “METHODS OF USE AND COMPOSITIONS OF BISBENZYLISOQUINOLINES FOR THE TREATMENT OF MALIGNANCIES” (priority 2023, published 2024).
Several values for one entry are separate records, joined by “and”; a condition that tells them apart may be missing. Equal values may be shown once.

By UniProt entry, the sequences of proteins in these tests, tags left out. Where a name states a change or a piece, a line headed by the entry shows the natural chain unless it says otherwise.
UniProt Q13555: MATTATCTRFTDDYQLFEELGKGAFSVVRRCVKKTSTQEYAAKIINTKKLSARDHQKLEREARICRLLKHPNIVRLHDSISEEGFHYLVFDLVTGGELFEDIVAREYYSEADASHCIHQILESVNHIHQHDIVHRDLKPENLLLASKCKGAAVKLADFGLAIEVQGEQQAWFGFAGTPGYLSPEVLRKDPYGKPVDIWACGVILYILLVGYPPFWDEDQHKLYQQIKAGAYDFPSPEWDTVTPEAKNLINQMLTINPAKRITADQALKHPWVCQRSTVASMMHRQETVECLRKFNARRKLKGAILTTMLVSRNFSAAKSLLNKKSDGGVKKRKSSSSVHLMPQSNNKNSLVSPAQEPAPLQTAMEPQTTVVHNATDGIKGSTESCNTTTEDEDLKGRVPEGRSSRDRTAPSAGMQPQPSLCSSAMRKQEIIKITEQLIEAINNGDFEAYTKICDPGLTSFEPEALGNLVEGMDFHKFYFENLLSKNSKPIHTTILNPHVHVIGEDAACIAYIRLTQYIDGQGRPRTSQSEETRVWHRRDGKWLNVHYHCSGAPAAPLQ

Molecular target: T1, CAMKII gamma (Homo sapiens, UniProt Q13555)
T1 construct: purchased Promega V3531
Test: CAMKII gamma kinase activity (ADP Glo)
Format: biochemical

CN[C@@H]1C[C@H]2O[C@@](C)([C@@H]1OC)n1c3ccccc3c3c4c(c5c6ccccc6n2c5c31)C(=O)NC4 [Staurosporin, reference compound]
mean (units) (10 nM inhibitor, 10 uM ATP): 0.915 units
units (duplicate reactions) (10 nM inhibitor, 10 uM ATP): 0.93 units and 0.9 units
mean (units) (10 nM inhibitor, 50 uM ATP): 7.285 units
mean (units) (100 nM inhibitor, 10 uM ATP): 0.2 units
units (duplicate reactions) (100 nM inhibitor, 10 uM ATP): 0.25 units and 0.15 units
mean (units) (100 nM inhibitor, 50 uM ATP): 0.635 units
units (duplicate reactions) (100 nM inhibitor, 50 uM ATP): 0.67 units and 0.6 units
